Assay results published in paper PMC3818031, “Structures of Saccharomyces cerevisiae D-arabinose dehydrogenase Ara1 and its complex with NADPH: implications for cofactor-assisted substrate recognition” (Acta Crystallographica Section F: Structural Biology and …, 2013).

Target: Saccharomyces cerevisiae D-arabinose dehydrogenase Ara1 (S. cerevisiae) (UniProt P38115)
Assay: SEC; gel-filtration chromatography, Ara1 in solution

stoichiometry N: 2
Substance: Saccharomyces cerevisiae D-arabinose dehydrogenase Ara1 (from UniProt P38115 1-344) (enzyme)
